# Measured affinities in a library of Ab-14 light chain variants

All variants were tested on one target, the spike HR2 peptide PDVDLGDISGINAS (SARS-CoV-2).

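The parent was found by panning a naive human phage display library on the peptide. The variants were designed computationally from a first round of random CDR variants and then made and measured. Several design methods are mixed in this list. AlphaSeq pools MATa yeast showing the antibodies with MATalpha yeast showing the peptide. Pairs that bind mate more often; barcode pairs of the diploids are counted by sequencing. Each replicate has its own calibration line, from reference interactions of the BCL2 family. Each pool was mated in six replicate cultures.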

The variants keep the heavy chain, the linker and the frameworks of Ab-14 (scFv order VH, three GGGGS repeats, VL).
VH: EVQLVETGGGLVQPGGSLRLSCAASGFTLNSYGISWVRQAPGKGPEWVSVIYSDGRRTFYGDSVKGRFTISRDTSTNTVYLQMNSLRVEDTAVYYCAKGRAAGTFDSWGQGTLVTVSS
VL: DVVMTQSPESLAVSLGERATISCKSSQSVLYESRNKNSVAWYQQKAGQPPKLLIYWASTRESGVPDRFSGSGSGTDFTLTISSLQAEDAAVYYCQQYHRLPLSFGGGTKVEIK

The parent's light chain CDRs are KSSQSVLYESRNKNSVA, WASTRES, QQYHRLPLS; each variant's own CDRs replace them letter for letter. Numbers give log10(Kd / nM), so 0 is 1 nM and 3 is 1 µM. Smaller is tighter. A mean of the replicates is given; it leaves out those without a signal. An entry "not detected" has no value in the source: the pair was not observed among the diploids in any replicate. This suggests poor binding but is not conclusive. The range of this assay differs from that of the first round, and the authors advise against merging the two. In the paper, a design with two or fewer of six values counts as a poor binder. Of ten entries with the parent sequence, four were seen in most replicates (averages 0.34 to 2.37), three in one and three in none, so single entries are noisy. As a blank, each scFv also met three strains without target: over all light chain designs, 4% of these pairings were detected, typically at 2.64 and seldom below 1.59. For each scFv, signals with the empty controls are counted beside the result.

CDR-L1,CDR-L2,CDR-L3,mean log10 Kd (nM),seen in,empty controls
KLQQQTLYESRNKNSVA,WASTREE,QQYHRLPLS,1.78,4/6,0/18
KLPQSQGYESRNKNSVA,NASQRES,QQYHRLPLS,0.17,6/6,0/18
KVSQSWLYEDRNKNSVA,NASQRES,QQYHRLPLS,-0.21,6/6,1/18
KMQQSVWYEQRNFNSVA,NGSTREQ,QQYHRLPLS,0.22,6/6,0/18
KSSMSWLYESRNKNSVA,GASFRES,QQYHRLPLS,0.07,6/6,2/18
MLSQMWALGMKVKNSVA,QASIRFN,QQYDRLPLM,1.38,1/6,0/18
KLMQSNLYESRNKNSVA,NASTRMS,QQYHRLPLS,-0.16,6/6,0/18
HQSWSVLYESRNKNSVA,NGSTREV,QQYHRLPLS,-0.14,6/6,1/18
KFDMHIPYQGEQNASIA,GTTNRLT,QQYFKLPLS,0.75,6/6,0/18
SLYEAMQTGGLHTSNIA,DANQQMR,QHYNRLPLA,0.67,6/6,1/18
KLPQSELYESRNKNSVA,NASQRLS,QQYHRLPLS,0.14,6/6,0/18
HISQMVMYGSCNKNNVA,QVSTREE,QSYHRLPLS,2.03,5/6,0/18
MVSMMPNEPTIDSNAIA,DHSQRNT,QQYDRLPLS,1.70,5/6,0/18
TISGMANYESTNKNSVA,ELTMRGS,QQYERLPLS,0.95,6/6,0/18
MVSMMPNEGTRYWEAVA,DHSQRNT,QQYDQLPLS,1.98,3/6,0/18
HLSLRLSYGNMLNKAVA,EVQARVT,QQYARLPLL,1.79,1/6,1/18
KLEQSVLGESRNKNSVA,NASTRES,QQYHRLPLS,-0.27,6/6,0/18
KSPQVYLYESRNKNSVA,GASTRES,QQYHRLPLS,-0.12,6/6,3/18
KLSMSYRVETEEKNSIA,ELVTRMS,QQYHRLPLS,2.38,6/6,2/18
MMSSLMGYESRHINNVA,QTSTREA,QQYDRLPLI,0.28,6/6,2/18
IVSQLMLWGMHVKNSIA,EAETRIN,QQYERLPLF,2.28,2/6,1/18
KMPQSVLYEQRNKNSVA,NGSTRFS,QQYHRLPLS,-0.03,6/6,0/18
KLQQSVLYESRNKNSVA,NASTRES,QQYHRLPLS,-0.35,6/6,2/18
KLMTSDLYESRMKNAVA,DASTRMD,QQYHRLPLS,0.15,6/6,0/18
NVGIEDPGQWYMWDSIA,DSSLRAE,QQYWRLPLM,0.10,6/6,1/18
KISNLVNFEGKNKNSVA,QMSTREN,QQYDRLPLS,0.26,6/6,1/18
HLSQTTDLESVHKNSIA,DLMTRES,QQYHRLPLS,0.17,6/6,2/18
KSSQSVLYESGNKNSVA,KDSTRES,QQYHRLPLS,not detected,0/6,0/18
NISYEQALSTYSVNNVA,QASVRAP,QYYQRLPLV,0.38,6/6,0/18
KLDMSLNYESVALDSIA,EEVHHTA,QQYDRLPLF,not detected,0/6,0/18
KLSQSVDYESRNKNSVA,DASTRCS,QQYHRLPLS,0.08,6/6,0/18
KLSQSTLYESRNKNSVA,HASQRES,QQYHRLPLS,-0.38,6/6,1/18
MISQLYNMGQFAINSVA,QASVRNA,QQYDRLPLI,1.10,6/6,0/18
KLGSMVLLEYGAKNSIA,QQSTREE,QQYDRLPLS,1.50,6/6,4/18
MLEWLEIGGQSVGNSIA,ANVQEQE,QQYFRLPLT,not detected,0/6,0/18
KMSQSELYESRNKNSVA,NASYRES,QQYHRLPLS,0.00,6/6,1/18
TIGQSAHETSRNKNSVA,HASTRED,QQYDRLPLS,0.29,6/6,2/18
RLENQETEQIQHANSIA,DRDEVDV,QQYAHLPLS,1.03,5/6,0/18
SSMQSVLYESRNKNSTA,HESTRED,QKYHRPPLS,not detected,0/6,0/18
QLYAVNDLTSKNSSNVA,EQTTREN,QQYHRLPLS,2.39,5/6,0/18
KISPSVLYESRNKNSVA,NASTREQ,QQYHRLPLS,-0.10,6/6,1/18
KMEQGVPYESRNKNSVA,GASTRES,QQYHRLPLS,0.28,6/6,0/18
KSGQSPLYESRNKNSVA,WASTRES,QQYHRLDLS,not detected,0/6,0/18
KVSQSINVGSKNKNSLA,EMSTREF,QDYHRLPLS,0.32,6/6,0/18
KLYMSTGYESRNADSIA,DNSTRGR,QQYHRLPLS,1.31,6/6,1/18
KFSQWVLYESRTGNSVA,NASTRES,QQYHRLPLS,0.19,6/6,0/18
KVAQGIYEGKRHSHNIA,EVSHLCD,QQYSRLPLE,1.06,6/6,3/18
HITYGMQVMGRHSKSIA,QAETREK,QQYDRLPLA,1.12,6/6,0/18
KLSQSVLYESRNKNNVA,GASKRES,QQYHRLPLS,-0.09,6/6,2/18

From the list, the first 5 with no signal in any replicate:

{"CDR-L1": "KSSQSVLYESGNKNSVA", "CDR-L2": "KDSTRES", "CDR-L3": "QQYHRLPLS", "mean log10 Kd (nM)": "not detected", "seen in": "0/6", "empty controls": "0/18"}
{"CDR-L1": "KLDMSLNYESVALDSIA", "CDR-L2": "EEVHHTA", "CDR-L3": "QQYDRLPLF", "mean log10 Kd (nM)": "not detected", "seen in": "0/6", "empty controls": "0/18"}
{"CDR-L1": "MLEWLEIGGQSVGNSIA", "CDR-L2": "ANVQEQE", "CDR-L3": "QQYFRLPLT", "mean log10 Kd (nM)": "not detected", "seen in": "0/6", "empty controls": "0/18"}
{"CDR-L1": "SSMQSVLYESRNKNSTA", "CDR-L2": "HESTRED", "CDR-L3": "QKYHRPPLS", "mean log10 Kd (nM)": "not detected", "seen in": "0/6", "empty controls": "0/18"}
{"CDR-L1": "KSGQSPLYESRNKNSVA", "CDR-L2": "WASTRES", "CDR-L3": "QQYHRLDLS", "mean log10 Kd (nM)": "not detected", "seen in": "0/6", "empty controls": "0/18"}

Data: MIT Lincoln Laboratory AlphaSeq set, Li et al. 2023, doi:10.1038/s41467-023-39022-2, as distributed in FLAb.